One experiment has as its target T1, muscarinic receptor M2 (Homo sapiens, UniProt P08172).
T1 construct: expressed in transfected cells
Put plainly: Muscarinic receptor subtype M2 binding assay, radioligand displacement.

Protein sequences, listed by entry. Tags and fused reporters are not part of them. Lines headed by an entry give the natural chain unless they say otherwise; changes in a name come on top.
UniProt P08172, whole entry: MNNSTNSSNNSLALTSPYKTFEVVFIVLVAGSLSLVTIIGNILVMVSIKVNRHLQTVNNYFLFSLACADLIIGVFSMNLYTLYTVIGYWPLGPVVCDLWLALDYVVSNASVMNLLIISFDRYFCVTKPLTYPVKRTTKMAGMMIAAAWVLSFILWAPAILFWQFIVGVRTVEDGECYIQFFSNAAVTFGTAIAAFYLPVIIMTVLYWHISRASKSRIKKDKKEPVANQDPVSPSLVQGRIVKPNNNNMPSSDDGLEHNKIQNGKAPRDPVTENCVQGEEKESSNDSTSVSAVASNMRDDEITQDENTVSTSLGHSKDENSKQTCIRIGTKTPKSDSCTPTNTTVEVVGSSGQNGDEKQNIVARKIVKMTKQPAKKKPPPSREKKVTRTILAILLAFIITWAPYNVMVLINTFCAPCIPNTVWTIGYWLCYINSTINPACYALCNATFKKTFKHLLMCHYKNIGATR
UniProt P20309, whole entry: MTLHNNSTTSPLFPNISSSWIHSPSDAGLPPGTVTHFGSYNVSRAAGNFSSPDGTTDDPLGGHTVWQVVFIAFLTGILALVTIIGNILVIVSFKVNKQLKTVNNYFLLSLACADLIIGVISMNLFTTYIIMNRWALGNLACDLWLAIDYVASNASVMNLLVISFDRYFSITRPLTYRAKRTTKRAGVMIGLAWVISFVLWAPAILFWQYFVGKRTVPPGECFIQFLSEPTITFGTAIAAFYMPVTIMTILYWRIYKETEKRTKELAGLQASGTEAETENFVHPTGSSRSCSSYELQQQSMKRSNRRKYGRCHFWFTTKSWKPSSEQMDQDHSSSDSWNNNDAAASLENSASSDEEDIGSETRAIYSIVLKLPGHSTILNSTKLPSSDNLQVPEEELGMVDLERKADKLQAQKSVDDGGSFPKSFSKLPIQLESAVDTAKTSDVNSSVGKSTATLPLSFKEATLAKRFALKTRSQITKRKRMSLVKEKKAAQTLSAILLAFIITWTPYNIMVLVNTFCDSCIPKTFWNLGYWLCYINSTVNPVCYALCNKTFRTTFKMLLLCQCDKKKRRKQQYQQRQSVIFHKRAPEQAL
UniProt P11229: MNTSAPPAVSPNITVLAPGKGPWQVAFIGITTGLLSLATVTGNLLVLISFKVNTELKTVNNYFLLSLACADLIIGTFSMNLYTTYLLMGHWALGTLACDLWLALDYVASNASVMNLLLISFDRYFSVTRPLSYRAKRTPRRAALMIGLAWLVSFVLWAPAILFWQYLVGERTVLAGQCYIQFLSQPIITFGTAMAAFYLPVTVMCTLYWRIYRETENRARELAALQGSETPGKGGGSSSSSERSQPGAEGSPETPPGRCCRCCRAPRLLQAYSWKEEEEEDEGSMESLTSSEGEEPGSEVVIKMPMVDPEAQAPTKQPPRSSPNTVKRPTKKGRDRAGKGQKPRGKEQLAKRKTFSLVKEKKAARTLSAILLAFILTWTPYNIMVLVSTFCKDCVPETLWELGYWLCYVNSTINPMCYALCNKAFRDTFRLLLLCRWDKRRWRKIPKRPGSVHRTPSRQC

The next experiment has as its target muscarinic receptor M3 (Homo sapiens, UniProt P20309). Put plainly: Muscarinic receptor subtype M3 binding assay, radioligand displacement.
Another experiment concerns the target T2, muscarinic receptor M1 (Homo sapiens, UniProt P11229).
T2 construct: expressed in transfected cells
Put plainly: Muscarinic receptor subtype M1 binding assay, radioligand displacement.

For the molecule `CC(C)[N+]1(C)[C@@H]2CC[C@H]1C[C@@H](OC(=O)C(CO)c1ccccc1)C2` (stereo partly drawn) [Ipratropium, 8-isopropylnoratropine methobromide, reference compound], the Ki amounted to 0.17 nM at muscarinic receptor M2, 0.38 nM at muscarinic receptor M3 and 0.46 nM on muscarinic receptor M1.

Source of the values: patent US6890920B2, “Quaternary ammonium compounds” (Pharmacia & Upjohn Company, priority 1992, dated 2005).
